{
  "sequences": {"note": "Protein sequences, listed by entry. Tags and fused reporters are not part of them. Lines headed by an entry give the natural chain unless they say otherwise; changes in a name come on top.", "UniProt Q9HBX9": "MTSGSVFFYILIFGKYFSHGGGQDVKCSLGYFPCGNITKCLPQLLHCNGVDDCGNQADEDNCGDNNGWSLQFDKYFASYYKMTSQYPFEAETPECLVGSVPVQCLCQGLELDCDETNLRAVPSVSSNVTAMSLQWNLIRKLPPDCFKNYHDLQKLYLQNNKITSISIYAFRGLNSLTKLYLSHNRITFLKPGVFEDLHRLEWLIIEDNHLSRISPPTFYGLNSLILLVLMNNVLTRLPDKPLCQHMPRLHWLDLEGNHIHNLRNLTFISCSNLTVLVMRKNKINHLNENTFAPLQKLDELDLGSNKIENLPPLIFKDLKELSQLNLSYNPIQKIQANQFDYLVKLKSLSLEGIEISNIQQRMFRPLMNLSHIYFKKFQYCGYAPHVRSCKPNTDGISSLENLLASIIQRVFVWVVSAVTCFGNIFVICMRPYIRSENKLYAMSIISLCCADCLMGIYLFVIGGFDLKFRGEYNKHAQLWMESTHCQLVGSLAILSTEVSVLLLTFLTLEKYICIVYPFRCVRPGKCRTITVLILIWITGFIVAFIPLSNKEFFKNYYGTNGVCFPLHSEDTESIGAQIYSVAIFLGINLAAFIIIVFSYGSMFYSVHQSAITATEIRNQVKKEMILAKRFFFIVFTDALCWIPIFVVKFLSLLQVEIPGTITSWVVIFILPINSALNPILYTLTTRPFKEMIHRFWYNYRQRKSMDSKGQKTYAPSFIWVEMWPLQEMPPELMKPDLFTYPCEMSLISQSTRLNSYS"},
  "source": "PubChem BioAssay AID1259400",
  "about": "(National Center for Advancing Translational Sciences (NCATS), 2018)",
  "note": "Only a part is listed here, and it is no random draw. Activity calls are given as the source filed them.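 How the source made its calls: active means activity change of -60% or lower, but not beyond a set lower limit; inconclusive means change between -60% and -40%, or beyond the set limit; inactive means change above -40%.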 On the % scale 0 is the no-effect control and ±100 the full control effect.",
  "data": [
    {"molecular_target": "Relaxin receptor 1 (Homo sapiens) (UniProt Q9HBX9)", "test": "qHTS Assay for Antagonists of the Relaxin Receptor RXFP1", "settings": "HEK293-RXFP1, relaxin-stimulated cAMP HTRF, 30 min; at 57.5 µM; active compounds read low", "text": "The relaxin hormone is involved in the variety of biological functions in normal tissues and diseases. The role of relaxin is well-established in female reproduction and parturition, mammary gland and endometrial development, maintenance of myometrial quiescence during pregnancy. Relaxin signaling through its G protein-coupled receptor (GPCR) RXFP1 results in ECM remodeling through regulation of collagen deposition, cell invasiveness, proliferation and overall tissue homeostasis. […] Recombinant human relaxin (rhRlx) is currently being tested in clinical trials as a protective agent in congestive heart failure, in treating severe preeclampsia, and as an anti-fibrotic agent in various organs. […] Upon relaxin binding RXFP1 activation leads to the activation of adenylate cyclase (AC) via G?s. cAMP will activate PKA, which phosphorylates many signaling proteins. Thus, detection of cAMP increase is an easy and reliable indication of relaxin receptor activation. To screen for antagonists of the relaxin receptor, a HEK293T cell line stably transfected with RXFP1 was used. RXFP1 activation by relaxin in presence of various concentrations of tested compounds was assayed by changes in cAMP levels as detected with a time-resolved fluorescence energy transfer (TR-FRET) cAMP detection kit.\nFor the primary screening, we used HTRF(R) (Homogenous Time-Resolved Fluorescence) cAMP HiRange assay (Cisbio Bioassays, 62AM6PEJ). Presence of cAMP in the cell lysate disrupts binding between the Cryptate-labeled anti-cAMP and d2-labeled cAMP pair, leading to a decrease in TR-FRET signal. The libraries were screened at two doses (57microM and 11microM), followed by a confirmation of the hits at 7-point serial dilution in the range of final concentrations [57microM - 78nM]. Data were normalized to the controls for basal activity (buffer only) and 100% activity (5 nM porcine relaxin). The EC50 values were determined from concentration-response data modeled with the standard Hill equation. NCGC Assay Protocol Summary: HiHEK (Hawaiian HEK293 LGR7 stably transfected with human RXFP1) were grown in the following media: DMEM+10%FBS+Pen/Strep + Geneticin (1mg/ml). For the assay, the cells were seeded in DMEM+Pen/Strep (with no serum & selective antibiotics) at 2,100 cells/ 3microl/well with MultiDrop Combi dispenser (Thermo Scientific, Logan, UT) onto white tissue culture treated solid bottom1536-well plates (Greiner #789173-F) and allowed to attach/recover overnight at 37 degrees C, 5% CO2. Next, 23nl/well of compound solutions in DMSO were transferred into wells with a pintool (Kalypsis, San Diego, CA). […] EC80 (relaxin at 50pM final concentration) was dispensed to the rest of the plate except columns 1&2 which were used as a negative control (EC0, buffer only), 1microl/well also. The cells were stimulated by relaxin in the presence of compounds for 30 minutes at 37 degrees C, 5% CO2. The detection reagents were prepared individually by dilution in Lysis buffer (supplied with the assay kit) just prior to dispensing. 1microl/well of cAMP-d2 and 1microl/well anti-cAMP-Eu3+-Cryptate antibodies were added simultaneously with BioRAPTR FRDtrade mark Workstation (Beckman Coulter). The plates were incubated at ambient temperature for 30 minutes and, then, FRET signal was read on Envision plate reader (PerkinElmer, Waltham, MA), at wavelengths 340nm (excitation), 615nm & 665nm (emission of donor and acceptor channels respectively).", "values": [
      {"smiles": "O=[N+]([O-])c1cccc(NC2=NCC(CBr)S2)c1", "note": "(stereo not drawn)", "activity change, negative = inhibition": "inactive: -3.34%"},
      {"smiles": "COC(=O)C1(C)COP(=O)(Nc2ccccc2)OC1", "note": "(stereo not drawn)", "activity change, negative = inhibition": "inactive: -2.48%"},
      {"smiles": "O=C(O)CNc1ccc([As](=O)(O)O)cc1", "activity change, negative = inhibition": "inactive: 3.29%"},
      {"smiles": "O=P1(N(CCCl)CCCl)OCCCS1", "note": "(stereo not drawn)", "activity change, negative = inhibition": "inactive: -22%"},
      {"smiles": "O=C(Nc1cc([As](=O)(O)O)ccc1O)c1ccccc1", "activity change, negative = inhibition": "inactive: 0.241%"},
      {"smiles": "C[N+]1=C2C=CC=CC=C2SC12C([N+](=O)[O-])=CC([N+](=O)[O-])=C[C-]2[N+](=O)[O-]", "note": "(stereo not drawn)", "activity change, negative = inhibition": "active: -60.1%"},
      {"smiles": "Nc1ccc([As](=O)(O)c2ccc(N)cc2)cc1", "activity change, negative = inhibition": "inactive: 12.9%"},
      {"smiles": "CCN(/C(=N/P(=O)(N1CCOCC1)N1CCOCC1)N1CCOCC1)c1ccc(OC)cc1", "activity change, negative = inhibition": "inactive: -7.81%"},
      {"smiles": "CN(C)C(=O)OCCc1n(C)cc[n+]1C", "activity change, negative = inhibition": "inactive: -2.75%"},
      {"smiles": "CC(C)=N/N=C(\\N)N[N+](=O)[O-]", "activity change, negative = inhibition": "inactive: 9.97%"},
      {"smiles": "CC(C)c1nc(Nc2ccccc2)n(P(=O)(N(C)C)N(C)C)n1", "activity change, negative = inhibition": "inactive: -3.54%"},
      {"smiles": "c1cc(-c2nn[nH]n2)ccc1-c1nn[nH]n1", "activity change, negative = inhibition": "inactive: 2.86%"},
      {"smiles": "CC1CCN(C(=O)Oc2c(Cl)cc(Cl)c3cccnc23)CC1", "activity change, negative = inhibition": "inactive: -9.05%"},
      {"smiles": "COc1ccc(C2=NCC(CBr)S2)cc1", "note": "(stereo not drawn)", "activity change, negative = inhibition": "inactive: 4.01%"},
      {"smiles": "O=[N+]([O-])c1cccc2n[nH]nc12", "activity change, negative = inhibition": "inactive: 0.733%"},
      {"smiles": "CC(=O)N1C2C3N(C(C)=O)C1C1N(C(C)=O)C(C(N1C(C)=O)N3C(C)=O)N2C(C)=O", "activity change, negative = inhibition": "inactive: -0.335%"},
      {"smiles": "CCc1nc2c(n1)c1c(non1O)c1c2no[n+]1[O-]", "activity change, negative = inhibition": "inactive: 4.24%"},
      {"smiles": "O=[N+]([O-])c1cc([N+](=O)[O-])c(CCNc2ccccc2)c([N+](=O)[O-])c1", "activity change, negative = inhibition": "inactive: -38.4%"},
      {"smiles": "Cc1ccc(NP(=O)(Oc2ccccc2)Oc2ccccc2)nc1", "activity change, negative = inhibition": "inactive: 7.76%"},
      {"smiles": "CC(C)C(=O)NC(Sc1ccccc1)C(Cl)(Cl)Cl", "note": "(stereo not drawn)", "activity change, negative = inhibition": "inactive: -7.56%"},
      {"smiles": "O=P(Nc1nccs1)(c1ccccc1)c1ccccc1", "activity change, negative = inhibition": "inactive: 6.43%"},
      {"smiles": "c1nnnn1CCn1cnnn1", "activity change, negative = inhibition": "inactive: 5.43%"},
      {"smiles": "O=[N+]([O-])c1ccc(O)c(/C=N/Nc2ccc([N+](=O)[O-])cc2[N+](=O)[O-])c1", "activity change, negative = inhibition": "inactive: -9.7%"},
      {"smiles": "O=[N+]([O-])c1ncn(CCn2cnc([N+](=O)[O-])n2)n1", "activity change, negative = inhibition": "inactive: 7.9%"},
      {"smiles": "CC(=O)NC(SC(=S)N(C)C)C(Cl)(Cl)Cl", "note": "(stereo not drawn)", "activity change, negative = inhibition": "inactive: 0.378%"},
      {"smiles": "O=[As](O)(c1ccccc1)c1ccc(O)cc1", "activity change, negative = inhibition": "inactive: -12.9%"},
      {"smiles": "Nc1ccc([As](=O)(O)c2ccc([N+](=O)[O-])cc2)cc1", "activity change, negative = inhibition": "inactive: -7.09%"},
      {"smiles": "C(Cc1nn[nH]n1)Cc1nn[nH]n1", "activity change, negative = inhibition": "inactive: 16.3%"},
      {"smiles": "O=C(OC1CN2CCC1CC2)c1cccc(Cl)c1", "note": "(stereo not drawn)", "activity change, negative = inhibition": "inactive: -10.9%"},
      {"smiles": "COc1ccc(N)c([N+](=O)[O-])c1[N+](=O)[O-]", "activity change, negative = inhibition": "inactive: -22.1%"},
      {"smiles": "O=P(Nc1ccccn1)(c1ccc(Br)cc1)c1ccc(Br)cc1", "activity change, negative = inhibition": "inactive: -25.8%"},
      {"smiles": "CN(C)C1(CNC(=O)c2ccc(Cl)c(S(N)(=O)=O)c2)CCCCC1", "activity change, negative = inhibition": "inactive: -8.78%"},
      {"smiles": "O=P(Nc1nc2ccccc2s1)(c1ccccc1)c1ccccc1", "activity change, negative = inhibition": "inactive: -1.8%"},
      {"smiles": "CN(C(=O)Cc1ccccc1)[C@H]1CC[C@@]2(CCCO2)C[C@@H]1N1CCCC1", "activity change, negative = inhibition": "inactive: 5.02%"},
      {"smiles": "Cc1cc([N+](=O)[O-])cc([N+](=O)[O-])c1O", "activity change, negative = inhibition": "inactive: -34.1%"},
      {"smiles": "Cc1ccc(OP(=O)(Nc2ccccn2)Oc2ccc(C)cc2)cc1", "activity change, negative = inhibition": "inactive: -0.63%"},
      {"smiles": "CC(=O)NC(SC(=S)N(CC(C)C)CC(C)C)C(Cl)(Cl)Cl", "note": "(stereo not drawn)", "activity change, negative = inhibition": "inactive: 0.686%"},
      {"smiles": "COC(=O)c1cc2c(s1)N=C(c1ccccc1)N(C)P2(=O)N1CCOCC1", "note": "(stereo not drawn)", "activity change, negative = inhibition": "inactive: -3.87%"},
      {"smiles": "CCC(=O)N1C2C3N(C(=O)CC)C1C1N(C(=O)CC)C(C(N1C(=O)CC)N3C(=O)CC)N2C(=O)CC", "activity change, negative = inhibition": "inactive: -2.43%"},
      {"smiles": "O=C(OC1CN2CCC1CC2)c1ccccc1", "note": "(stereo not drawn)", "activity change, negative = inhibition": "inactive: -4.92%"},
      {"smiles": "CN(C)C(=O)Oc1noc2ccccc12", "activity change, negative = inhibition": "inactive: -1.53%"},
      {"smiles": "Cc1ccccc1OP(=O)(Nc1ccccn1)Oc1ccccc1C", "activity change, negative = inhibition": "inactive: -17.3%"},
      {"smiles": "CC(NC(=O)COC(=O)C(O)(c1ccccc1)c1ccccc1)c1ccccc1", "note": "(stereo not drawn)", "activity change, negative = inhibition": "inactive: -13.9%"},
      {"smiles": "CCNC(=S)/N=C(\\N)N[N+](=O)[O-]", "activity change, negative = inhibition": "inactive: 4.36%"},
      {"smiles": "O=C(NC1CCS(=O)(=O)C1)NP(=S)(Oc1ccccc1)Oc1ccccc1", "note": "(stereo not drawn)", "activity change, negative = inhibition": "inactive: 9.92%"},
      {"smiles": "Cc1ccc(NP(=O)(Oc2cccc(C)c2)Oc2cccc(C)c2)nc1", "activity change, negative = inhibition": "inactive: -19.7%"},
      {"smiles": "c1ccc(-c2nn[nH]n2)c(-c2nn[nH]n2)c1", "activity change, negative = inhibition": "inactive: -5.65%"},
      {"smiles": "O=P1(N(CCCl)CCCl)OCCC2CCCCN21", "note": "(stereo not drawn)", "activity change, negative = inhibition": "inactive: 4.85%"},
      {"smiles": "COC(=O)C1(C)COP(=O)(NCc2ccccc2)OC1", "note": "(stereo not drawn)", "activity change, negative = inhibition": "inactive: -0.231%"},
      {"smiles": "N#C/C(=C\\c1ccc(N(CCBr)CCBr)cc1)C(N)=O", "activity change, negative = inhibition": "inactive: -15.1%"},
      {"smiles": "CC(=O)c1ccc(N2CC2c2ccncc2)cc1", "note": "(stereo not drawn)", "activity change, negative = inhibition": "inactive: 6.79%"},
      {"smiles": "Cc1ccccc1CN(C)C(=O)COC(=O)C(O)(c1ccccc1)c1ccccc1", "activity change, negative = inhibition": "inactive: -5.24%"},
      {"smiles": "CC(=O)Nc1ccc(Oc2c([N+](=O)[O-])cc([N+](=O)[O-])cc2[N+](=O)[O-])cc1", "activity change, negative = inhibition": "inactive: 2.71%"},
      {"smiles": "CC(=O)Nc1ccc([As](=O)(O)O)c(O)c1", "activity change, negative = inhibition": "inactive: -6.05%"},
      {"smiles": "CCOc1ccc(C2=NCC(CBr)S2)cc1", "note": "(stereo not drawn)", "activity change, negative = inhibition": "inactive: 13.8%"},
      {"smiles": "O=P1(Nc2nc3ccc(Cl)cc3s2)COc2ccccc2O1", "note": "(stereo not drawn)", "activity change, negative = inhibition": "inactive: -8.43%"},
      {"smiles": "CCc1cc(O)c([N+](=O)[O-])c(C)c1[N+](=O)[O-]", "activity change, negative = inhibition": "inactive: -4.2%"},
      {"smiles": "CC(C)(C)C(=O)NC(Sc1ccccc1)C(Cl)(Cl)Cl", "note": "(stereo not drawn)", "activity change, negative = inhibition": "inactive: -17%"}
    ]}
  ]
}
